Results: ChEMBL document CHEMBL1125327, “Conformationally restricted deltorphin analogues” (J Med Chem, 1992)

The chains behind the UniProt entries cited, without tags or fusion partners.
UniProt P32300, whole entry: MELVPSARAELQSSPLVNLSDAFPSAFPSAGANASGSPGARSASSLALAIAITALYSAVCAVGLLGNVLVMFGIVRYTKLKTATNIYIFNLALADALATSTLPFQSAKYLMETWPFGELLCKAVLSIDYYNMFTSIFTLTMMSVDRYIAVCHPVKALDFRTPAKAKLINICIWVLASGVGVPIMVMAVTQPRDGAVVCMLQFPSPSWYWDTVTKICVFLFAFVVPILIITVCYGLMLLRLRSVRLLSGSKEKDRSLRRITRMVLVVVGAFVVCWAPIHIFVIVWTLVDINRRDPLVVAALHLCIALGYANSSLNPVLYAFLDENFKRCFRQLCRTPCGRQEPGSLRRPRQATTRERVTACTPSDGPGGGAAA

Molecular target: Delta-type opioid receptor (Mus musculus, UniProt P32300)
Assay: Inhibition of electrically evoked contractions in mouse vas deferens
Assay type: functional

Row | Structure (SMILES) | IC50
1 | CC(C)[C@H](NC(=O)[C@H](CC(=O)O)NC(=O)[C@H](Cc1ccccc1)NC(=O)[C@@H](C)NC(=O)[C@@H](N)Cc1ccc(O)cc1)C(=O)N[C@H](C(=O)NCC(N)=O)C(C)C [DELTORPHIN C] | 0.147 nM
2 | CC(C)[C@H](NC(=O)[C@H](CC(=O)O)NC(=O)[C@@H](Cc1ccccc1)NC(=O)[C@@H](C)NC(=O)[C@@H](N)Cc1ccc(O)cc1)C(=O)N[C@H](C(=O)NCC(N)=O)C(C)C | 42.7 nM
